Literature values as cited in patent US20050004105A1, “Treatment for a attention-deficit hyperactivity disorder” (priority 2003, published 2005).

Chains of the proteins cited; added tags and fusions are not shown. Residues count along the entry.
UniProt H0WCX4, 1-619: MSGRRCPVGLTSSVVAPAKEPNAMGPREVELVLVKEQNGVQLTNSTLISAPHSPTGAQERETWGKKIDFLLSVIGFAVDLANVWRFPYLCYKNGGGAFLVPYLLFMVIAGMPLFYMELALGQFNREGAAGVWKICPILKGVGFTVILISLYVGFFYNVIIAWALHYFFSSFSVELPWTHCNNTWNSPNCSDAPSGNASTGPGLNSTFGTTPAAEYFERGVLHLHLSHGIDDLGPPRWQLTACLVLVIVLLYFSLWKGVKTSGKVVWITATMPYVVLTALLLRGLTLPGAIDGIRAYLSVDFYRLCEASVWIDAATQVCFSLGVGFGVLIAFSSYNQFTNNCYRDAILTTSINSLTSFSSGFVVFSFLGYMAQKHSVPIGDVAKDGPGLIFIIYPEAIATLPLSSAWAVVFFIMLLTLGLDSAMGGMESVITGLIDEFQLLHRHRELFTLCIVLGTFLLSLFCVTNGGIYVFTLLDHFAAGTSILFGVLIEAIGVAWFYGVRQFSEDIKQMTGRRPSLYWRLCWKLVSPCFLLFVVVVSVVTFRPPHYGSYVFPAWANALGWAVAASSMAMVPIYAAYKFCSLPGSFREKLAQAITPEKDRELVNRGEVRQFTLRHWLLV

Molecular target: dopamine transporter (DAT) (Cavia porcellus, UniProt H0WCX4)
Conditions: guinea pig striatal membranes, [3H]WIN 35,428; exemplary protocol; read-out: Ki of reference compound, DAT binding assay; cited from earlier work

SMILES: Fc1ccc(C(OCCN2CCN(CCCc3ccccc3)CC2)c2ccc(F)cc2)cc1 [GBR-12909]
- Ki: ~7.1 nM
